## Apparent affinities of Ab-91 variants for a coronavirus HR2 peptide

Binding partner: SARS-CoV-2 spike HR2 peptide, sequence PDVDLGDISGINAS.

Parent: Ab-91, a human scFv built as VL, a 15-residue (Gly4Ser)3 linker, VH. Only the CDRs of the heavy chain vary.
VL: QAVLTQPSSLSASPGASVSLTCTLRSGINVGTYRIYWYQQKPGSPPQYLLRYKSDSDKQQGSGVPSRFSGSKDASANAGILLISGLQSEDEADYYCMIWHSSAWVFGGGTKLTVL
VH: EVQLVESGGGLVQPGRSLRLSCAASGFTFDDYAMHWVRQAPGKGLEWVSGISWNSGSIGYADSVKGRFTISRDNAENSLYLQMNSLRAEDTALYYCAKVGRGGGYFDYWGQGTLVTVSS

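The parent was found by panning a naive human phage display library on the peptide. Library AAYL51 holds single substitutions and randomly drawn double and triple substitutions in the CDRs. The assay is AlphaSeq: two haploid yeast populations carry antibody and antigen on their surface. Binding brings cells together so that they mate, and sequencing counts the barcode pairs among the diploids. A regression on co-assayed BCL2-family reference pairs converts the normalised counts of each replicate to an apparent Kd. Mating was done three times.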

Sequences are complete VH domains.
Values are log10 of the apparent Kd in nM; lower means stronger binding.
Replicates are averaged; those with no signal do not enter the mean.
A pair that was not seen in that replicate is written "nd"; this usually means weak binding, but a binder can also be missed.
Empty control strains, which show no peptide, gave a signal in 21% of pairings with library AAYL51; the median was 4.54 and 95% of these signals were weaker than 3.26. No background was subtracted. For each scFv, signals with the empty controls are counted beside the result, with their mean in brackets.
Parent in this assay: reference entry 1.86, copy in this library 0.88.

VH | log10 Kd, replicates | mean log10 Kd (nM) | control signals
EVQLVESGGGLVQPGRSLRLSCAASGFTFDDYAMHWVRQAPGKGLEWVSGISANSGSIGYADSVKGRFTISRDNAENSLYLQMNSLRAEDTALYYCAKVGRGGGYFDYWGQGTLVTVSS | 1.71 1.54 1.34 | 1.53 | 1 of 9 (5.14)
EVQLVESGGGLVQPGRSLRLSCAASSFTFDDYAMHWVRQAPGKGLEWVSGISWNSGMIGSADSVKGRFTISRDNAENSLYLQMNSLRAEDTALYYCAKVGRGGGYFDYWGQGTLVTVSS | nd nd 2.75 | 2.75 | 3 of 9 (4.17)
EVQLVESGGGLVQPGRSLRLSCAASGFTFDDYAAHWVRQAPGKGLEWVSGISWNLGSIGYADSVKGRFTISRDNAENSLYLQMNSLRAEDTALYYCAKVGRGGGYFMYWGQGTLVTVSS | nd 4.66 nd | 4.66 | 2 of 9 (4.49)
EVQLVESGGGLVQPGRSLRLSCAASGFTFDDYSMHWVRQAPGKGLEWVSGHSWNSGSIGYADSVDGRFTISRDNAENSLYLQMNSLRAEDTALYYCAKVGRGGGYFDYWGQGTLVTVSS | nd nd 4.35 | 4.35 | 3 of 9 (4.34)
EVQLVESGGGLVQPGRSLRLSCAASGFTDDDYALHWVRQAPGKGLEWVSGISWNSGEIGYADSVKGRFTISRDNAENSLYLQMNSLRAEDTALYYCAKVGRGGGYFDYWGQGTLVTVSS | 4.08 4.80 nd | 4.44 | 2 of 9 (4.41)
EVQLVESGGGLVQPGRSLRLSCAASGFTFDDYAEHWVRQAPGKGLEWVSVISWNSGSITYADSVKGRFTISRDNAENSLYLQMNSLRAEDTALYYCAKVGRGGGYFDYWGQGTLVTVSS | nd nd nd | nd | 0 of 9
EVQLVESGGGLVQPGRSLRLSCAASCFTFDDYAMHWVRQAPGKGLEWVSGLSWNSQSIGYADSVKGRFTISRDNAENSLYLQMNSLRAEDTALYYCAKVGRGGGYFDYWGQGTLVTVSS | 4.73 nd nd | 4.73 | 2 of 9 (4.94)
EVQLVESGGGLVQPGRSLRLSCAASGFTFDDYAMHWVRQAPGKGLEWVSGISWNSGMIGLALSVKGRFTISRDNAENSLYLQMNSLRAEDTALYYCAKVGRGGGYFDYWGQGTLVTVSS | 3.29 nd 3.46 | 3.38 | 0 of 9
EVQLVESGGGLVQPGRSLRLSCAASGFTFDDYAMHWVRQAPGKGLEWVSGISWNTGIIGYRDSVKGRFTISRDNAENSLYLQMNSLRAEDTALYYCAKVGRGGGYFDYWGQGTLVTVSS | nd nd nd | nd | 1 of 9 (4.78)
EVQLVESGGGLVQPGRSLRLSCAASGQTFDDEAMHWVRQAPGKGLEWVSGISWNSNSIGYADSVKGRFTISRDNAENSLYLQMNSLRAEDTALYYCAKVGRGGGYFDYWGQGTLVTVSS | nd nd nd | nd | 0 of 9
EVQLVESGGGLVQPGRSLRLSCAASGFTFDDYAMHWVRQAPGKGLEWVSGISGNSGSIGYADSVKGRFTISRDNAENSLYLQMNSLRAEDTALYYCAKVGRGGGDNDYWGQGTLVTVSS | 0.93 0.74 0.38 | 0.68 | 3 of 9 (4.00)
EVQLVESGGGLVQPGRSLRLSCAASGHTFDDYAMHWVRQAPGKGLEWVSGISWNSGSIGYADLVKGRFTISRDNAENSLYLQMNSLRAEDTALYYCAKVGRGGGYDDYWGQGTLVTVSS | nd nd 4.10 | 4.10 | 1 of 9 (2.86)
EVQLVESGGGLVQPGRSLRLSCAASGFTGDMYAMHWVRQAPGKGLEWVSWISWNSGSIGYADSVKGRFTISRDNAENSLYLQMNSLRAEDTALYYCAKVGRGGGYFDYWGQGTLVTVSS | nd nd nd | nd | 0 of 9
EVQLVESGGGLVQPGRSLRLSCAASGFTFDDYAMHWVRQAPGKGLEWVSGISWLSGSIGAADSVKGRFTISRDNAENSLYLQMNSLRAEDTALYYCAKVGRDGGYFDYWGQGTLVTVSS | 3.92 nd 5.07 | 4.49 | 3 of 9 (4.83)
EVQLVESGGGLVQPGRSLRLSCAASGFTFDDYAMHWVRQAPGKGLEWVSGISWFSGSIGYADSLKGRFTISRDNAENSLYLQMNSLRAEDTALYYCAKVGRGNGYFDYWGQGTLVTVSS | 4.27 nd nd | 4.27 | 5 of 9 (4.51)
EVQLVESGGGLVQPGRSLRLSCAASGFVFDDGAMHWVRQAPGKGLEWVSGISWNSGSIGYADSVKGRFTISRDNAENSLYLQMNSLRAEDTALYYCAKVGRGGGHFDYWGQGTLVTVSS | nd nd nd | nd | 0 of 9
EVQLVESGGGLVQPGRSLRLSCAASGFTFDFAAMHWVRQAPGKGLEWVSGISWNSGSIGYADSVFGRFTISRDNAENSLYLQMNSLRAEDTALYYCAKVGRGGGYFDYWGQGTLVTVSS | 4.69 nd nd | 4.69 | 0 of 9
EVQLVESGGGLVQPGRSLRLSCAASGFQFDDYIMHWVRQAPGKGLEWVSGISWNSGSIGYADSVKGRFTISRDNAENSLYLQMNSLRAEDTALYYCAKVGRPGGYFDYWGQGTLVTVSS | nd nd nd | nd | 0 of 9
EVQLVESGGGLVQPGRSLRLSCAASGFTFDDPAMHWVRQAPGKGLEWVSGISWNSGSIGYADSVKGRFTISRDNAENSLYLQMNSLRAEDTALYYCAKGGRGGGYFDYWGQGTLVTVSS | nd nd nd | nd | 3 of 9 (4.56)
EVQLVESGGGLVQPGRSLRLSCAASGFTFDDYAMHWVRQAPGKGLEWVSGISWNSGSICCADSVKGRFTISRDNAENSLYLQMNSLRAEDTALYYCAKVGRGGGYFDYWGQGTLVTVSS | nd 4.46 nd | 4.46 | 2 of 9 (4.02)
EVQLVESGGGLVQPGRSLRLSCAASGFTFDDYAMHWVRQAPGKGLEWVSGISWNSGKIGYADSVKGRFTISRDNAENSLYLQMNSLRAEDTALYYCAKVGRGGGWEDYWGQGTLVTVSS | 3.24 nd nd | 3.24 | 1 of 9 (3.86)
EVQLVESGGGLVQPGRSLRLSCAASGFTFDDYAMHWVRQAPGKGLEWVSWISWNSGSIGYADSVKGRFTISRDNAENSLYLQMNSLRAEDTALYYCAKVGRAGGYVDYWGQGTLVTVSS | nd nd nd | nd | 0 of 9

Excerpt, the first 2 entries:

VH | log10 Kd, replicates | mean log10 Kd (nM) | control signals
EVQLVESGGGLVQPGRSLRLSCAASGFTFDDYAMHWVRQAPGKGLEWVSGISANSGSIGYADSVKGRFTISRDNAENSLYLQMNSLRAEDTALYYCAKVGRGGGYFDYWGQGTLVTVSS | 1.71 1.54 1.34 | 1.53 | 1 of 9 (5.14)
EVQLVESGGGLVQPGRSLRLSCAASSFTFDDYAMHWVRQAPGKGLEWVSGISWNSGMIGSADSVKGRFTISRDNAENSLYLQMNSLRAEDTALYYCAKVGRGGGYFDYWGQGTLVTVSS | nd nd 2.75 | 2.75 | 3 of 9 (4.17)

Values reported by Engelhart et al. 2022, doi:10.1038/s41597-022-01779-4 (FLAb copy).